Key:
[1] = optical characterization of NIR imaging agents (spectra, extinction coefficient, quantum yield, lifetime, relative brightness); assay type: physicochemical; conditions: 1 μM solution
Procedure: Fluorescence quantum yield was determined by the comparative method of Williams et al. 1983 (Williams, Winfield and Miller. Analyst 109, 1067, 1983) using the quantum yield of ICG (in water) at 785/830 nm (24) as a standard. Lifetime measurements were obtained using the frequency domain-method using ICG as a standard. The IC50 of IRDye800-ABD was determined using a competitive binding assay modified from Dennis et al. 2002 (ibid). Briefly, MAXISORP fluorescent plates (Nunc, Rochester, N.Y.) were coated with mouse serum albumin (Sigma St Louis, Mo.) and incubated overnight at 4 degrees. Plates were washed three times with PBS+0.05% Tween20 (Sigma St. Louis, Mo.) to remove unbound albumin and were then blocked with TBS in casein (Pierce Rockford, Ill.) for 1 hour at 25 degrees. […] The plate was washed with PBS+0.05% Tween20 three times to remove unbound peptide and fluorescence was measured using the ODYSSEY fluorescent plate reader (LI-COR, Lincoln, Nebr.). The average and standard deviation of four IC-50 values were determined.
In addition, Table 1 lists the relative brightness of each compound relative to ICG which was computed by taking the ratio of ((extinction coefficient)×(quantum yield))/((extinction coefficient of ICG)×(quantum yield of ICG)). […] Spectra for ICG and the IRDye800 conjugates were determined.

inguinal lymph node = conditions: mouse, in vivo

For “IRDye800-MSA: IRDye800 conjugated to mouse serum albumin, dye to protein ratio of 2.8, provided by LI-COR”, which Emission maximum [1] is on record?
Its Emission maximum is 802.

What about the Excitation maximum [1] of the same substance?
Its Excitation maximum is 787.

What about the “fluorescence intensity in inguinal node, initially” value (inguinal lymph node) of the same substance?
Its value is “started out with a lower intensity”.

What about the “lymphatic clearance from inguinal lymph node” value (inguinal lymph node) of the same substance?
Its value is “slowed clearance”.
